## AlphaSeq binding of Ab-95 light chain variants to a spike HR2 peptide

Source: Engelhart et al. 2022 (doi:10.1038/s41597-022-01779-4), MIT Lincoln Laboratory and A-Alpha Bio; data file from the FLAb repository.

The target is the same throughout: PDVDLGDISGINAS, from the HR2 region of SARS-CoV-2 spike.

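Variants in AAYL52 differ from the parent at up to three CDR positions; double and triple changes were sampled at random. AlphaSeq pools MATa yeast showing the antibodies with MATalpha yeast showing the peptide. The frequency of each diploid, read from paired DNA barcodes, reflects how well the two displayed proteins bind. The ratio of observed to expected reads was calibrated, replicate by replicate, on BCL2-family standards whose Kd was known from biolayer interferometry. Each pool was mated in three replicate cultures.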

Ab-95 is the parent antibody, in scFv form: VH, then a (GGGGS)3 linker, then VL. The heavy chain is unchanged in all variants.
VH: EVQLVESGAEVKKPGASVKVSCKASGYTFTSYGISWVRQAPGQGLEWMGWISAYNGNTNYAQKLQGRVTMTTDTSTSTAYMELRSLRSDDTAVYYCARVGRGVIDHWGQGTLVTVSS
VL: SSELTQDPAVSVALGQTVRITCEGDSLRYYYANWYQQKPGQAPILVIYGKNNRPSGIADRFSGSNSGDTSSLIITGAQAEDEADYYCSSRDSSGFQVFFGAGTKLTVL

The parent's light chain CDRs are EGDSLRYYYAN, GKNNRPS, SSRDSSGFQVF; each variant's own CDRs replace them letter for letter. Values are log10 of the apparent Kd in nM; lower means stronger binding. The mean shown is taken over the replicates in which the pair was detected. Where no diploid with the target was found in that replicate, the entry reads "ND": below detection, most likely a poor binder, though not proof of it. As a blank, each scFv also met three strains without target: over library AAYL52, 28% of these pairings were detected, typically at 3.91 and seldom below 2.90. Also given: how often the same scFv was detected with the empty control strains, with their mean in brackets.

CDR-L1	CDR-L2	CDR-L3	log10 Kd, replicates	mean, log10 nM	control signals
EGDSLSYYYAN	GKNNRPS	SSRDSSGFGCF	3.00 / 2.43 / 2.54	2.66	3/9 (3.64)
NGDSMRYYYAR	GKNNRPS	SSRDSSGFQVF	5.69 / 3.73 / ND	4.71	1/9 (4.99)
EGDELRYYYAN	GKNNRPS	SSRDSSGFQVA	3.83 / ND / 3.99	3.91	2/9 (3.23)
EGDSLRYWYAN	GKNNRPS	SSRDSHGFQVH	3.44 / 2.82 / 2.78	3.01	3/9 (4.21)
EGDSLRYYYAN	GKNNRPS	SSRRSSMFVVF	ND / 3.53 / ND	3.53	3/9 (3.24)
EGDSLRYYCAN	GLNNRPS	SSRDSSGFQQF	2.47 / 2.31 / 2.51	2.43	5/9 (3.95)
ENDSLRFHYAN	GKNNRPS	SSRDSSGFQVF	2.75 / 2.95 / 2.27	2.66	3/9 (4.37)
EGDSLRYYYAN	GKNNNPS	SSRDSSGFRVC	3.05 / 5.47 / ND	4.26	5/9 (4.07)
EGDSLRYYYAN	GKNNRPS	YSRASSHFQVF	2.08 / 3.37 / 3.11	2.85	2/9 (3.75)
EGDFLRYYYAN	GKSNRPS	SSRDSSGMQVF	ND / 4.19 / ND	4.19	2/9 (3.63)
EGDSLRYKYAN	GKNNRPS	LSRDSSSFQVF	3.53 / 5.48 / 3.91	4.31	7/9 (4.27)
EGDDLRYYYAN	GKNNRPS	SSRDGSGYQVF	3.22 / 3.99 / 3.01	3.41	1/9 (4.84)
EGDSLRYYYEN	NKNNRPS	SSRDSSGPQVF	ND / ND / ND	ND	1/9 (4.15)
EGDSLRHYYAN	GKNNRPS	SARDSSAFQVF	ND / ND / ND	ND	0/9
EGSSLRYYYAN	GKNNRPS	SSRCSMGFQVF	2.06 / 2.64 / 1.84	2.18	2/9 (4.01)
EADSLRYYYAN	GKNNRPS	SIRDSSGFQVF	3.91 / 2.63 / ND	3.27	1/9 (3.77)
EGDSLRYYYAN	GKNNRPS	SSRDVNGFQSF	3.21 / 3.53 / 2.05	2.93	2/9 (4.72)
EGDSLRYYYAN	GKFNRPS	SSRDASGFQVR	4.12 / 4.19 / 3.71	4.00	7/9 (4.15)
EGDSLRYYYAN	GKLNRPS	SSRDSAGFQVF	3.38 / 3.96 / ND	3.67	4/9 (3.99)
EGDSLRYYSAN	GKNNRPS	SSRDSSPFQVF	1.59 / 1.51 / 1.15	1.42	3/9 (3.33)
EGDSLRYDYAN	GKNNRPI	ASRDSSGFQVF	1.88 / 1.75 / 1.22	1.62	1/9 (4.09)
EGDSLRYYYAN	LKNNRPS	SSCDTSGFQVF	3.52 / 5.75 / ND	4.63	2/9 (4.98)
EGDGLRYYYAN	GKNNRPS	SSRHSAGFQVF	2.59 / 2.62 / 3.00	2.74	5/9 (3.86)
EGDSLRYYYAN	GKNNRPS	SSRISSKFWVF	2.37 / 2.47 / 2.32	2.39	2/9 (3.81)
EGDSLRYYYAW	GSNNRPC	SSRDSSGFQVF	5.62 / ND / ND	5.62	0/9
EGDSLRYYYAN	GKNNRPS	SERDSSGDQVD	3.28 / 2.80 / 2.80	2.96	7/9 (3.78)
EGDSLRYYIAN	GKNNRCS	SSRDSSGFGVF	ND / ND / ND	ND	2/9 (3.60)
EGDSLRYYYAN	GKNNRPS	SSMDSSGFMVF	3.40 / ND / ND	3.40	2/9 (3.80)
EDDDLRYYYAN	GKNNRPS	SIRDSSGFQVF	3.40 / ND / ND	3.40	4/9 (3.22)
EGHSLRYYYAN	GKNNRPS	SSRNSDGFQVF	2.58 / 2.49 / 2.01	2.36	2/9 (3.86)
EGDSLRYYYAN	IKNNRPS	SSRDHSGFQVF	ND / 4.10 / ND	4.10	1/9 (4.30)
EGDSLRGYYAN	GKNNRKS	SSRDSSGFQVF	2.83 / 2.18 / 2.40	2.47	4/9 (4.09)
EGDPLRYYYAN	GKNNRDS	SIRDSSGFQVF	ND / ND / ND	ND	1/9 (4.24)
EGESLRYYYAN	GKNNRPP	SSRDSSGFQEF	4.21 / 2.65 / 2.32	3.06	6/9 (3.69)
EGDSLRYYYAN	AKNNRPS	SSRRSSGFQVF	3.03 / 3.77 / 2.71	3.17	4/9 (4.17)
EGDSERYTYAN	LKNNRPS	SSRDSSGFQVF	ND / 4.29 / ND	4.29	2/9 (3.58)

Again, the first 4 entries without any signal:

CDR-L1	CDR-L2	CDR-L3	log10 Kd, replicates	mean, log10 nM	control signals
EGDSLRYYYEN	NKNNRPS	SSRDSSGPQVF	ND / ND / ND	ND	1/9 (4.15)
EGDSLRHYYAN	GKNNRPS	SARDSSAFQVF	ND / ND / ND	ND	0/9
EGDSLRYYIAN	GKNNRCS	SSRDSSGFGVF	ND / ND / ND	ND	2/9 (3.60)
EGDPLRYYYAN	GKNNRDS	SIRDSSGFQVF	ND / ND / ND	ND	1/9 (4.24)